Among the targets are SRPK3 (human) (UniProt Q9UPE1); AXL (human) (UniProt P30530); AKT2 (human) (UniProt P31751).
Common to all, as to experiment: radiometric filter-binding kinase assay, Kinase HotSpot
Common to all, as to settings: compound 0.5 µM; ATP 10 µM

Sequences of proteins named here, by UniProt entry; tags and fusion partners are left off. A change or cut given only in a name is not applied to a line headed by its entry.
UniProt Q9UPE1, whole entry, looked up: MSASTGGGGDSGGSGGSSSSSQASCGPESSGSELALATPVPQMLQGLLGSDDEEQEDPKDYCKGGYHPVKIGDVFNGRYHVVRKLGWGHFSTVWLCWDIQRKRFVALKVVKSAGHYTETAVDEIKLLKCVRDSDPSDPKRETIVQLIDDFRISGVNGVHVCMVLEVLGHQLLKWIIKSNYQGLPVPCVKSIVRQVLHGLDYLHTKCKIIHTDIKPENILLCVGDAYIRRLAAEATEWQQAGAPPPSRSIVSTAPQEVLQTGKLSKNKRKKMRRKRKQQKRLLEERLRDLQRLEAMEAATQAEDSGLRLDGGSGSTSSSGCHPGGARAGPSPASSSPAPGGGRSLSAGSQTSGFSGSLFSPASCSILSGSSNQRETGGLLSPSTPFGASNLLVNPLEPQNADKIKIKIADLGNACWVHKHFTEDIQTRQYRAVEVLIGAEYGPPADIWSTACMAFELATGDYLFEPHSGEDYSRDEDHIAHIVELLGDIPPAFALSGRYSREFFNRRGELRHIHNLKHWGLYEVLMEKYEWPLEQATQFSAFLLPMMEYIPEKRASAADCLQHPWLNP
UniProt P30530, whole entry, looked up: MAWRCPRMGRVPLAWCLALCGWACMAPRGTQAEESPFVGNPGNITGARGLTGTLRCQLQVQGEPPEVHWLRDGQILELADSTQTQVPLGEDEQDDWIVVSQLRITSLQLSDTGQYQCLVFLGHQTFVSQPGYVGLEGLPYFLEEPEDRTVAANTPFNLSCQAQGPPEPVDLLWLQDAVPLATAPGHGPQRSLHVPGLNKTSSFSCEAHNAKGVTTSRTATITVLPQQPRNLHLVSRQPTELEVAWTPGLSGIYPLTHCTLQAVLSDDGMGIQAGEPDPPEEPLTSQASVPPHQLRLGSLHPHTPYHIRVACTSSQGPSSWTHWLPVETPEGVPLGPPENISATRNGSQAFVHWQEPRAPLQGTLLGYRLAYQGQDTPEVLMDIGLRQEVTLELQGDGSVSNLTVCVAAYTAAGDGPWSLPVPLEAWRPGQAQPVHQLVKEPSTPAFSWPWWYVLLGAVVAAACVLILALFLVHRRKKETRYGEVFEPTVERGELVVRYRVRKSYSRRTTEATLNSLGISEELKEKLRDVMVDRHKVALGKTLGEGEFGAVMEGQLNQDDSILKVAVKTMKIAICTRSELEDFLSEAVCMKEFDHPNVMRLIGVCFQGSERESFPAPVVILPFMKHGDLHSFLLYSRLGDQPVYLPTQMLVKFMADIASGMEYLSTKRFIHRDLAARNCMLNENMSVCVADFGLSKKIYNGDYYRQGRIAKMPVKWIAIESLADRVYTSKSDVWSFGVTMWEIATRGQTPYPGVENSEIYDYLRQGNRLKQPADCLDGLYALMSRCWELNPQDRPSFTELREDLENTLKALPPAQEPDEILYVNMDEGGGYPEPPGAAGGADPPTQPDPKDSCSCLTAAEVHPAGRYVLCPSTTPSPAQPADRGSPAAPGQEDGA
UniProt P31751: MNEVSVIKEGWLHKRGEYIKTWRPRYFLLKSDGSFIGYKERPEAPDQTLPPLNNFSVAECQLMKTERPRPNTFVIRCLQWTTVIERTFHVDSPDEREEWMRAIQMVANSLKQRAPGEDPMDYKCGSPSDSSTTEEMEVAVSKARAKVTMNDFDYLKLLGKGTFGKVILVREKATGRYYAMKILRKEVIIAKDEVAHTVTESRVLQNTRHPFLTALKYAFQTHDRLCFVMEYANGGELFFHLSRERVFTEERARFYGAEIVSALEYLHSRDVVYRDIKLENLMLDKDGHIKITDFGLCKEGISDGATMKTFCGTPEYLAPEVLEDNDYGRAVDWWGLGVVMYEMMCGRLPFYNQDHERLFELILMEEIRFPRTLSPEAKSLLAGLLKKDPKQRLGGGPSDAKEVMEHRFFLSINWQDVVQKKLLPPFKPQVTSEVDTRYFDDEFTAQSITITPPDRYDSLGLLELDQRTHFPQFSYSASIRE

With `CC[n+]1c(/C=C/N(C)c2ccccc2)n(-c2ccccc2)c2ccc(-c3nc4ccccc4s3)cc21`, the residual activity – broadly, the signal under treatment as a percentage of the control signal – at SRPK3 (human) turned out to be 107%.
For the molecule `Cc1ccc(S(=O)(=O)/C=C/C#N)cc1`, the residual activity at AXL (human) is 107%.
Turning to `CC#CC(=O)Nc1cc2c(Nc3ccc(F)c(Cl)c3)ncnc2cn1`, the residual activity at AKT2 (human) came out at 103%.

(Values after the kinase profiling compilation of Christmann-Franck et al. (2016).)
